Source: publication PMC7587356, “High-Throughput Screening for Inhibitors of the SARS-CoV-2 Protease Using a FRET-Biosensor” (Molecules, 2020)

Columns and labels:
SARS-CoV-2 3CLpro [1] = biological target: T1, SARS-CoV-2 3CLpro (Severe acute respiratory syndrome coronavirus 2, UniProt P0DTD1); details: for Replicate_2 (LOPAC_screen_w_protease): replicate 2
SARS-CoV-2 3CLpro [2] = biological target: T1, SARS-CoV-2 3CLpro; test: biochemical; details: 4 h
SARS-CoV-2 3CLpro [3] = biological target: T1, SARS-CoV-2 3CLpro; test: biochemical
[4] = read-out: Replicate_1 (LOPAC_screen_w_protease)
[5] = read-out: Replicate_2 (LOPAC_screen_w_protease)
[6] = LOPAC1280 primary screen with protease, 5 µM compound
[7] = read-out: Replicate_1 (LOPAC screen with protease)
[8] = read-out: Replicate_2 (LOPAC screen with protease)
[9] = read-out: mean (LOPAC screen with protease)

Compound: CCN(CC)CC(=O)Nc1c(C)cccc1C [Lidocaine hydrochloride]
- mean (LOPAC_screen_w_protease) (SARS-CoV-2 3CLpro [1]): 1.695
- inhibition at 5 µM (SARS-CoV-2 3CLpro [2]; [4]): 2.11%
- inhibition at 5 µM (SARS-CoV-2 3CLpro [2]; [5]): 1.28%

Compound: C[N+](C)(C)CC=O [Betaine aldehyde chloride]
- mean (LOPAC_screen_w_protease) (SARS-CoV-2 3CLpro [1]): 1.378
- inhibition at 5 µM (SARS-CoV-2 3CLpro [2]; [4]): 0.633%
- inhibition at 5 µM (SARS-CoV-2 3CLpro [2]; [5]): 2.12%

Compound: Cn1c(=O)c2[nH]cnc2n(C)c1=O [Theophylline]
- mean (LOPAC_screen_w_protease) (SARS-CoV-2 3CLpro [1]): 1.763
- inhibition at 5 µM (SARS-CoV-2 3CLpro [2]; [4]): 2.3%
- inhibition at 5 µM (SARS-CoV-2 3CLpro [2]; [5]): 1.23%

Compound: O=C(CCCN1CC=C(n2c(=O)[nH]c3ccccc32)CC1)c1ccc(F)cc1 [Droperidol]
- mean (LOPAC_screen_w_protease) (SARS-CoV-2 3CLpro [1]): 1.965
- inhibition at 5 µM (SARS-CoV-2 3CLpro [2]; [4]): 2.54%
- inhibition at 5 µM (SARS-CoV-2 3CLpro [2]; [5]): 1.39%

Compound: C[C@]12C=CC(=O)C=C1CC[C@H]1[C@@H]3C[C@@H](O)[C@](O)(C(=O)CO)[C@@]3(C)C[C@H](O)[C@@]12F [Triamcinolone]
- mean (LOPAC_screen_w_protease) (SARS-CoV-2 3CLpro [1]): 2.083
- inhibition at 5 µM (SARS-CoV-2 3CLpro [2]; [4]): 2.32%
- inhibition at 5 µM (SARS-CoV-2 3CLpro [2]; [5]): 1.84%

Compound: CN(C)CC[C@@H](c1ccc(Cl)cc1)c1ccccn1 [(+)-Chlorpheniramine maleate]
- mean (LOPAC_screen_w_protease) (SARS-CoV-2 3CLpro [1]): 1.673
- inhibition at 5 µM (SARS-CoV-2 3CLpro [2]; [4]): 2.03%
- inhibition at 5 µM (SARS-CoV-2 3CLpro [2]; [5]): 1.32%

Compound: NC(N)=Nc1nc(CSCCC(N)=NS(N)(=O)=O)cs1 [Famotidine]
- mean (LOPAC_screen_w_protease) (SARS-CoV-2 3CLpro [1]): 1.453
- inhibition at 5 µM (SARS-CoV-2 3CLpro [2]; [4]): 2.1%
- inhibition at 5 µM (SARS-CoV-2 3CLpro [2]; [5]): 0.811%

Compound: O=c1[nH]cc(F)c(=O)[nH]1 [5-Fluorouracil]
- mean (LOPAC_screen_w_protease) (SARS-CoV-2 3CLpro [1]): 1.797
- inhibition at 5 µM (SARS-CoV-2 3CLpro [2]; [4]): 3.6%
- inhibition at 5 µM (SARS-CoV-2 3CLpro [2]; [5]): -0.00964%

Compound: Cc1cn[nH]c1.Cl [4-Methylpyrazole hydrochloride]
- Replicate_1 (SARS-CoV-2 3CLpro [1]; sheet LOPAC_screen_w_protease, LOPAC1280 primary screen with protease, 5 µM compound, replicate 1): 2.521

Compound: N[C@@H](Cc1ccc(N(CCCl)CCCl)cc1)C(=O)O [Melphalan]
- mean (LOPAC_screen_w_protease) (SARS-CoV-2 3CLpro [1]): 1.588
- inhibition at 5 µM (SARS-CoV-2 3CLpro [2]; [4]): 2.15%
- inhibition at 5 µM (SARS-CoV-2 3CLpro [2]; [5]): 1.03%

Compound: CNC[C@H](O)c1cccc(O)c1 [Phenylephrine hydrochloride]
- mean (LOPAC_screen_w_protease) (SARS-CoV-2 3CLpro [1]): 1.841
- inhibition at 5 µM (SARS-CoV-2 3CLpro [2]; [4]): 1.35%
- inhibition at 5 µM (SARS-CoV-2 3CLpro [2]; [5]): 2.33%

Compound: NC(CO)C(=O)NNCc1ccc(O)c(O)c1O (stereo not drawn) [Benserazide]
- Ratio (A/B) (SARS-CoV-2 3CLpro [3]): 1.8
- EC50 (SARS-CoV-2 3CLpro [3]; with 0.01% Triton X-100; mean ± SD of triplicate; 4 h, 30 °C; read-out: A) EC50 with Triton X-100): 2110 ± 303 nM
- EC50 (SARS-CoV-2 3CLpro [3]; without Triton X-100; mean ± SD of triplicate; 4 h, 30 °C; read-out: B) EC50 without Triton X-100): 1190 ± 202 nM

Compound: CC(=O)N1CCN(c2ccc(OCC3COC(Cn4ccnc4)(c4ccc(Cl)cc4Cl)O3)cc2)CC1 (stereo not drawn) [Ketoconazole]
- mean (LOPAC_screen_w_protease) (SARS-CoV-2 3CLpro [1]): 1.861
- inhibition at 5 µM (SARS-CoV-2 3CLpro [2]; [4]): 2.9%
- inhibition at 5 µM (SARS-CoV-2 3CLpro [2]; [5]): 0.821%

Compound: NCCCNCCSP(=O)(O)O [Amifostine]
- mean (LOPAC_screen_w_protease) (SARS-CoV-2 3CLpro [1]): 2.129
- inhibition at 5 µM (SARS-CoV-2 3CLpro [2]; [4]): 2.71%
- inhibition at 5 µM (SARS-CoV-2 3CLpro [2]; [5]): 1.55%

Compound: NC(=O)c1ncn([C@@H]2O[C@H](CO)[C@@H](O)[C@H]2O)n1 [Ribavirin]
- mean (LOPAC_screen_w_protease) (SARS-CoV-2 3CLpro [1]): 1.951
- inhibition at 5 µM (SARS-CoV-2 3CLpro [2]; [4]): 2.8%
- inhibition at 5 µM (SARS-CoV-2 3CLpro [2]; [5]): 1.1%

Compound: C[C@H]1C[C@H]2[C@@H]3CCC4=CC(=O)C=C[C@]4(C)[C@@]3(F)[C@@H](O)C[C@]2(C)[C@@]1(O)C(=O)CO [Betamethasone]
- mean (LOPAC_screen_w_protease) (SARS-CoV-2 3CLpro [1]): 2.104
- inhibition at 5 µM (SARS-CoV-2 3CLpro [2]; [4]): 1.35%
- inhibition at 5 µM (SARS-CoV-2 3CLpro [2]; [5]): 2.86%

Compound: C[C@@]1(C2CCCC2)Cc2cc(OCC(=O)O)c(Cl)c(Cl)c2C1=O [R(+)-IAA-94]
- Replicate_1 (SARS-CoV-2 3CLpro [1]; sheet LOPAC_screen_w_protease, primary screen with protease, compound at 5 µM, replicate 1): 2.519

Compound: COc1ccc2cc([C@H](C)C(=O)[O-])ccc2c1.[Na+] [(-)-Naproxen sodium]
- Replicate_1 (SARS-CoV-2 3CLpro [1]): 2.524

Compound: NCC(O)(CS(=O)(=O)O)c1ccc(Cl)cc1 (stereo not drawn) [2-Hydroxysaclofen]
- Replicate_1 (SARS-CoV-2 3CLpro [1]; sheet LOPAC_screen_w_protease, LOPAC1280 primary screen at 5 µM, with protease, replicate 1): 2.518

Compound: COc1ccc2c(c1OC)C(=O)O[C@@H]2[C@H]1c2c(cc3c(c2OC)OCO3)CCN1C.Cl [Noscapine hydrchloride]
- Replicate_2 (LOPAC_screen_w_protease) (SARS-CoV-2 3CLpro [1]; [6]): 2.517

Compound: CC[C@@H](CO)NC(=O)[C@@H]1C=C2c3cccc4c3c(cn4C)C[C@H]2N(C)C1 [Methysergide maleate]
- inhibition at 5 µM (SARS-CoV-2 3CLpro [2]; read-out: Replicate_1): 2.96%
- inhibition at 5 µM (SARS-CoV-2 3CLpro [2]; read-out: Replicate_2): 3.5%
- inhibition at 5 µM (SARS-CoV-2 3CLpro [2]; read-out: mean): 3.23%

Compound: CC(CCc1ccccc1)NCC(O)c1ccc(O)c(C(N)=O)c1 (stereo not drawn) [Labetalol hydrochloride]
- mean (LOPAC_screen_w_protease) (SARS-CoV-2 3CLpro [1]): 1.52
- inhibition at 5 µM (SARS-CoV-2 3CLpro [2]; [4]): 1.53%
- inhibition at 5 µM (SARS-CoV-2 3CLpro [2]; [5]): 1.51%

Compound: O=C(O)CCCc1ccc(N(CCCl)CCCl)cc1 [Chlorambucil]
- inhibition at 5 µM (SARS-CoV-2 3CLpro [2]; read-out: Replicate_1): 2.39%
- inhibition at 5 µM (SARS-CoV-2 3CLpro [2]; read-out: Replicate_2): 3.29%
- inhibition at 5 µM (SARS-CoV-2 3CLpro [2]; read-out: mean): 2.84%

Compound: CC12CC3CC(C)(C1)CC(N)(C3)C2 [Memantine hydrochloride]
- inhibition at 5 µM (SARS-CoV-2 3CLpro [2]; read-out: Replicate_1): 4.92%
- inhibition at 5 µM (SARS-CoV-2 3CLpro [2]; read-out: Replicate_2): 1.8%
- inhibition at 5 µM (SARS-CoV-2 3CLpro [2]; read-out: mean): 3.36%

Compound: CO/N=C(\C(=O)N[C@@H]1C(=O)N2C(C(=O)O)=C(CSc3nc(=O)c(=O)[nH]n3C)CS[C@H]12)c1csc(N)n1 [Ceftriaxone sodium]
- mean (LOPAC_screen_w_protease) (SARS-CoV-2 3CLpro [1]): 2.1257
- inhibition at 5 µM (SARS-CoV-2 3CLpro [2]; [4]): 1.37%
- inhibition at 5 µM (SARS-CoV-2 3CLpro [2]; [5]): 2.88%

Compound: CN(Cc1cnc2nc(N)nc(N)c2n1)c1ccc(C(=O)N[C@@H](CCC(=O)O)C(=O)O)cc1 [Methotrexate]
- inhibition at 5 µM (SARS-CoV-2 3CLpro [2]; read-out: Replicate_1): 0.384%
- inhibition at 5 µM (SARS-CoV-2 3CLpro [2]; read-out: Replicate_2): 0.0465%
- inhibition at 5 µM (SARS-CoV-2 3CLpro [2]; read-out: mean): 0.215%

Compound: CC1=C(CC(=O)O)c2cc(F)ccc2/C1=C\c1ccc([S+](C)[O-])cc1 (stereo not drawn) [Sulindac]
- inhibition at 5 µM (SARS-CoV-2 3CLpro [2]; read-out: Replicate_1): 1.65%
- inhibition at 5 µM (SARS-CoV-2 3CLpro [2]; read-out: Replicate_2): 3.88%
- inhibition at 5 µM (SARS-CoV-2 3CLpro [2]; read-out: mean): 2.76%

Compound: NC(CO)C(=O)NNCc1ccc(O)c(O)c1O (stereo not drawn) [Benserazide hydrochloride]
- inhibition at 5 µM (SARS-CoV-2 3CLpro [2]; [7]): 73.3%
- inhibition at 5 µM (SARS-CoV-2 3CLpro [2]; [8]): 70.5%
- inhibition at 5 µM (SARS-CoV-2 3CLpro [2]; [9]): 71.9%

Compound: CC(=O)[C@]1(O)Cc2c(O)c3c(c(O)c2[C@@H](O[C@H]2C[C@H](N)[C@H](O)[C@H](C)O2)C1)C(=O)c1ccccc1C3=O [Idarubicin, reference compound]
- inhibition at 5 µM (SARS-CoV-2 3CLpro [2]; [7]): 49.5%
- inhibition at 5 µM (SARS-CoV-2 3CLpro [2]; [8]): 46.4%
- inhibition at 5 µM (SARS-CoV-2 3CLpro [2]; [9]): 47.9%

Compound: C#CCN(C)CCCOc1ccc(Cl)cc1Cl [Clorgyline hydrochloride]
- inhibition at 5 µM (SARS-CoV-2 3CLpro [2]; read-out: Replicate_1): 5.98%
- inhibition at 5 µM (SARS-CoV-2 3CLpro [2]; read-out: Replicate_2): 4.2%
- inhibition at 5 µM (SARS-CoV-2 3CLpro [2]; read-out: mean): 5.09%

Compound: CC1=C(/C=C/C(C)=C/C=C/C(C)=C/C(=O)O)C(C)(C)CCC1 [Retinoic acid]
- mean (LOPAC_screen_w_protease) (SARS-CoV-2 3CLpro [1]): 2.047
- inhibition at 5 µM (SARS-CoV-2 3CLpro [2]; [4]): 2.57%
- inhibition at 5 µM (SARS-CoV-2 3CLpro [2]; [5]): 1.52%

Compound: CN1Cc2c(N)cccc2C(c2ccccc2)C1 (stereo not drawn) [Nomifensine maleate]
- mean (LOPAC_screen_w_protease) (SARS-CoV-2 3CLpro [1]): 1.94
- inhibition at 5 µM (SARS-CoV-2 3CLpro [2]; [4]): 3.97%
- inhibition at 5 µM (SARS-CoV-2 3CLpro [2]; [5]): -0.0859%

Compound: Br.COc1ccc2c(c1)[C@]13CCCC[C@@H]1[C@H](C2)N(C)CC3.O
- Replicate_2 (LOPAC_screen_w_protease) (SARS-CoV-2 3CLpro [1]; [6]): 2.52

Compound: CC(=O)S[C@@H]1CC2=CC(=O)CC[C@]2(C)[C@H]2CC[C@@]3(C)[C@@H](CC[C@@]34CCC(=O)O4)[C@H]12 [Spironolactone]
- inhibition at 5 µM (SARS-CoV-2 3CLpro [2]; read-out: Replicate_1): 0.656%
- inhibition at 5 µM (SARS-CoV-2 3CLpro [2]; read-out: Replicate_2): 1.74%
- inhibition at 5 µM (SARS-CoV-2 3CLpro [2]; read-out: mean): 1.2%

Where a name gives a salt, the structure may show the parent alone. Read-outs that look alike come from different tables or passages of the source.
